Biological target: 11β-HSD1 (Homo sapiens, UniProt P28845)
Experiment: In vitro inhibition of 11β-HSD1, HTRF detection of cortisol generated from cortisone by human liver microsomes
Assay type: biochemical
Conditions: read-out: 11β-HSD IC50, 1 hour at 37° C., pH 6.0, NADPH 200 μM, cortisone 80 nM, inhibition relative to carbenoxolone signal
Method: Cortisol generated in the reaction is then detected with a competitive immunoassay, involving two HTRF conjugates: cortisol linked to XL665 and anti-cortisol antibody labeled with Europium cryptate. The incubation period for detection reaction was typically 2 hours. […] The ratio of the two emission signals is then calculated (Em665*10000/Em615). […] Each assay also contained a calibration curve with cortisol to transform the fluorescent data into cortisol concentrations. Percent inhibition of each compound was determined relative to the carbenoxolone signal and IC50 curves were generated.

Chains of the proteins cited; added tags and fusions are not shown.
UniProt P28845, whole entry: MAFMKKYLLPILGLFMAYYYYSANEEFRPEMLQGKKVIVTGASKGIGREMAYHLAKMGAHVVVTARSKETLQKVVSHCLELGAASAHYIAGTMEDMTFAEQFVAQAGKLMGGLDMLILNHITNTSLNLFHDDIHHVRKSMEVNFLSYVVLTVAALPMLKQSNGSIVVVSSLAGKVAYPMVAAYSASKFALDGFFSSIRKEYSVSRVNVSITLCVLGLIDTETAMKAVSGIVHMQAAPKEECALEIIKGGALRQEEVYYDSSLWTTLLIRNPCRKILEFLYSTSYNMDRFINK

Q: How did the IC50 turn out when CC1(C)[C@H]2Cc3cc4nc([C@H]5CCCO5)[nH]c4cc3[C@]1(C)CCN2C(=O)c1ccc2nc[nH]c2c1 was run?
A: 0.061 µM
